The results in this text go back to patent US20060293223A1 (Eli Lilly and Company Patent Division, priority 2003, published 2006).

The chains behind the UniProt entries cited, without tags or fusion partners. Where a name states a change or a piece, a line headed by the entry shows the natural chain unless it says otherwise.
UniProt P41968: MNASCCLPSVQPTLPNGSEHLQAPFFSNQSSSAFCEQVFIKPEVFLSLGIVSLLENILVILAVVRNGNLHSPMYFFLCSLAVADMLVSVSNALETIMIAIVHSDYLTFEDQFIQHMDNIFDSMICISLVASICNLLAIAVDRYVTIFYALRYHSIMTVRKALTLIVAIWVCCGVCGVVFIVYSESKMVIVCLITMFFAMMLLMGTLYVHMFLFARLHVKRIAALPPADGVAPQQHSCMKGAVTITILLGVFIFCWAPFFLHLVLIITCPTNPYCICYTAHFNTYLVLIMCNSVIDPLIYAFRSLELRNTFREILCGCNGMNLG

For orientation: Ki means the dissociation constant of the complex between target and ligand, obtained from inhibition or displacement. A low value points to higher affinity.

This assay concerns the target human MC3R (Homo sapiens, UniProt P41968). Briefly: Melanocortin receptor whole cell cAMP accumulation assay, MC3 (Table 2, MC3 Potency, printed as Ki). The note with it: HEK 293 cells. It counts as cell-based. Background: Changes in cAMP serve as a functional read-out for many G protein-coupled receptors.
The substance “Ac-Tyr-Arg-cyclo[hCys-Glu-His-D-Phe-Arg-Trp-Cys]-NH2 [Compound 166]” gave a Ki of at least 0.5 µM.

For the substance “Ac-cyclo[hCys-His-D-Phe-Arg-Trp-hCys]-NH2 [Compound 193]”, the Ki worked out at 0.0954 µM.

Turning to “Ac-Tyr-Arg-cyclo[Cys-Glu-His-D-Phe-Arg-Trp-Cys]-Lys-Pro-NH2 [Compound 121]”, the Ki amounted to 0.00408 µM.

With “cyclo[Cys-His-D-Phe-Arg-Trp-hCys]-NH2 [Compound 180]”, the Ki is at least 0.5 µM.

In the case of “4-guanidinobutyryl-cyclo[Cys-Glu-His-D-Phe-Arg-Trp-Cys]-NH2 [Compound 41]”, the affinity, expressed as Ki, was 0.0625 µM.

For the substance “N-succinyl-Tyr-Arg-cyclo[Cys-Glu-His-D-Phe-Arg-Trp-Cys]-OH [Compound 131]”, the Ki was at least 0.5 µM.

In the case of “Ac-Tyr-Arg-cyclo[Cys-Ala-His-D-Phe-Arg-Trp-Cys]-NH2 [Compound 3]”, the Ki was determined as 0.0349 µM.

For “Ac-Leu-cyclo[Cys-Glu-His-D-Phe-Arg-Trp-Cys]-NH2 [Compound 57]”, the affinity corresponds to a Ki of 0.2 µM.

The substance “N-phenylsulfonyl-cyclo[hCys-His-D-Phe-Arg-Trp-Cys]-NH2 [Compound 150]” gave a Ki of 0.0369 µM.

“Ac-Tyr-Arg-cyclo[Cys-Glu-(4-phenyl-1H-imidazol-2-yl-Ala)-D-Phe-Arg-Trp-Cys]-NH2 [Compound 103]” gave a Ki of 0.0203 µM.

“Ac-Tyr-Arg-cyclo[Cys-Glu-(2-pyrazine-Ala)-D-Phe-Arg-Trp-Cys]-NH2 [Compound 105]” showed a Ki of at least 0.5 µM.

As to “N-phenylsulfonyl-cyclo[hCys-His-D-Phe-Arg-Trp-penicillamine]-NH2 [Compound 175]”, the Ki came to 0.0403 µM.

As for “Ac-Tyr-Arg-cyclo[Cys-Thr-His-D-Phe-Arg-Trp-Cys]-NH2 [Compound 22]”, the Ki stood at 0.0303 µM.

In turn, “Ac-Tyr-Arg-cyclo[Cys-Glu-(5-Me-His)-D-Phe-Arg-Trp-Cys]-NH2 [Compound 97]” yielded a Ki of 0.0179 µM.

“Ac-Tyr-Arg-cyclo[Cys-Glu-(1-Me-D-His)-(4-OMe-D-Phe)-Arg-Trp-Cys]-NH2 [Compound 95]” displayed a Ki of at least 0.5 µM.

Regarding “Ac-Tyr-Arg-cyclo[Cys-Glu-His-D-Phe-Arg-Trp-Cys]-OH [Compound 73]”, affinity was put at a Ki of 0.411 µM.

The substance “Ac-Tyr-Arg-cyclo[Cys-Glu-(β-((1-benzyl)-1,2,4-triazol-3-yl))-D-Ala)-D-Phe-Arg-Trp-Cys]-NH2 [Compound 108]” yielded a Ki of 0.167 µM.

As for “N-cyclopentanecarbonyl-cyclo[hCys-His-D-Phe-Arg-Trp-Cys]-NH2 [Compound 143]”, the inhibition constant (Ki) worked out at 0.0006 µM.

On to “Ac-Tyr-Arg-cyclo[Cys-Ile-His-D-Phe-Arg-Trp-Cys]-NH2 [Compound 14]”, for which the Ki was 0.0322 µM.

“Ac-Tyr-Arg-cyclo[Cys-Glu-(4-phenyl-1H-imidazol-2-yl-D-Ala)-D-Phe-Arg-Trp-Cys]-NH2 [Compound 104]”: the Ki was at least 0.5 µM.

Consider “N-glutaryl-Tyr-Arg-cyclo[Cys-Glu-His-D-Phe-Arg-Trp-Cys]-NH2 [Compound 75]”, for which the Ki turned out to be 0.143 µM.

Take “Ac-Tyr-Arg-cyclo[Cys-Glu-His-D-Phe-Arg-Trp-Cys]-glycinol [Compound 114]”: the Ki was 0.0463 µM.

With “N-hexanoyl-cyclo[hCys-His-D-Phe-Arg-Trp-penicillamine]-NH2 [Compound 170]”, the Ki was determined as 0.00485 µM.

Consider “Ac-Tyr-Arg-cyclo[Cys-Gln-His-D-Phe-Arg-Trp-Cys]-OH [Compound 9]”, for which the affinity corresponds to a Ki of 0.364 µM.

Turning to “Ac-cyclo[hCys-His-D-Phe-Arg-Trp-Cys]-NH2 [Compound 137]”, affinity was put at a Ki of 0.00977 µM.

In the case of “Ac-cyclo[Cys-Glu-His-(4-Br-D-Phe)-Arg-Trp-Cys]-NH2 [Compound 33]”, the Ki turned out to be 0.0101 µM.

In turn, “Ac-Tyr-Arg-cyclo[Cys-Ser-His-D-Phe-Arg-Trp-Cys]-NH2 [Compound 21]” had a Ki of 0.0386 µM.

In the case of “Ac-Tyr-Arg-cyclo[D-Cys-Glu-His-D-Phe-Arg-Trp-Cys]-NH2 [Compound 80]”, the Ki was 0.112 µM.

In turn, “Ac-Tyr-Arg-cyclo[Cys-Glu-(β-(2-furyl)-Ala)-D-Phe-Arg-Trp-Cys]-NH2 [Compound 110]” registered a Ki of at least 0.5 µM.

“Ac-cyclo[hCys-His-(4-F-D-Phe)-Arg-Trp-Cys]-NH2 [Compound 139]”: affinity was put at a Ki of 0.00846 µM.

As for “Ac-Tyr-Arg-cyclo[Cys-Phe-His-D-Phe-Arg-Trp-Cys]-NH2 [Compound 19]”, the Ki stood at 0.028 µM.

For “(4-benzenesulfonamide)butyryl-cyclo[hCys-His-D-Phe-Arg-Trp-penicillamine]-NH2 [Compound 176]”, the Ki was 0.0192 µM.

As to “N-cyclohexanecarbonyl-cyclo[hCys-His-D-Phe-Arg-Trp-Cys]-NH2 [Compound 144]”, the affinity, expressed as Ki, was 0.00223 µM.

For the substance “Ac-Tyr-Arg-cyclo[Cys-Glu-(β-(1,3-thiazol-4-yl)-Ala)-D-Phe-Arg-Trp-Cys]-NH2 [Compound 112]”, the Ki is at least 0.5 µM.

“5-guanidinovaleryl-cyclo[Cys-Glu-His-D-Phe-Arg-Trp-Cys]-NH2 [Compound 42]” yielded a Ki of 0.0432 µM.

In the case of “Tyr-Arg-cyclo[Cys-Glu-His-D-Phe-Arg-Trp-Cys]-Glu-NH2 [Compound 71]”, affinity was put at a Ki of 0.0362 µM.

Consider “Ac-Tyr-Arg-cyclo[Cys-Glu-His-D-Phe-Arg-Trp-Cys]-NH-(CH2)6-NH2 [Compound 117]”, for which the affinity, expressed as Ki, was 0.0146 µM.

“Ac-Tyr-Arg-cyclo[Cys-Cya-His-D-Phe-Arg-Trp-Cys]-NH2 [Compound 28]” showed a Ki of 0.0713 µM.

As to “Tyr-Arg-cyclo[Cys-Glu-His-D-Phe-Arg-Trp-Cys]-NH—(CH2)6—NH2 [Compound 70]”, the affinity, expressed as Ki, was 0.00993 µM.

Substance “cyclo[3-thiopropionyl-His-D-Phe-Arg-Trp-hCys]-NH2 [Compound 179]” returned a Ki of at least 0.5 µM.

“Ac-nLeu-cyclo[hCys-His-D-Phe-Arg-Trp-Cys]-NH2 [Compound 160]” yielded a Ki of 0.00028 µM.

On to “Ac-Tyr-Arg-cyclo[Cys-Asn-His-D-Phe-Arg-Trp-Cys]-NH2 [Compound 5]”, for which the Ki came to 0.048 µM.

As to “3-(4-hydroxyphenyl)propionyl-Arg-cyclo[Cys-Glu-His-D-Phe-Arg-Trp-Cys]-NH2 [Compound 66]”, the Ki came to 0.0389 µM.

In the case of “Ac-cyclo[Cys-Glu-His-D-Phe-Arg-Trp-Cys]-Lys-Pro-NH2 [Compound 35]”, the affinity corresponds to a Ki of 0.0286 µM.

“Ac-Tyr-Arg-cyclo[Cys-Glu-His-(4-Cl-D-Phe)-Arg-Trp-Cys]-NH2 [Compound 86]”: affinity was put at a Ki of 0.00291 µM.

Substance “Ac-D-Arg-cyclo[Cys-Glu-His-D-Phe-Arg-Trp-Cys]-NH2 [Compound 52]” yielded a Ki of 0.0663 µM.

“Ac-cyclo[Cys-His-D-Phe-Arg-Trp-Cys]-NH2 [Compound 1]” yielded a Ki of at least 0.5 µM.

In the case of “Ac-Tyr-hArg-cyclo[Cys-Glu-His-D-Phe-Arg-Trp-Cys]-NH2 [Compound 126]”, the Ki stood at 0.091 µM.

In turn, “Ac-D-Arg-cyclo[Cys-Glu-His-D-Phe-Arg-Trp-Cys]-OH [Compound 53]” showed a Ki of over 0.5 µM.

Turning to “Ac-Tyr-Ser-cyclo[Cys-Glu-His-D-Phe-Arg-Trp-Cys]-NH2 [Compound 129]”, the affinity, expressed as Ki, was 0.273 µM.

The substance “Ac-Tyr-Arg-cyclo[Cys-Met-His-D-Phe-Arg-Trp-Cys]-NH2 [Compound 18]” showed a Ki of 0.0233 µM.

“Ac-Arg-cyclo[hCys-His-D-Phe-Arg-Trp-hCys]-NH2 [Compound 195]” registered an inhibition constant Ki of 0.0141 µM.

The substance “Ac-D-Arg-cyclo[Cys-Glu-His-Phe-Arg-Trp-Cys]-NH2 [Compound 47]” had a Ki of over 0.5 µM.

“Ac-Arg-cyclo[Cys-His-(4-F-D-Phe)-Arg-Trp-hCys]-NH2 [Compound 190]”: the Ki was found to be 0.033 µM.

In turn, “Arg-cyclo[Cys-His-(4-F-D-Phe)-Arg-Trp-hCys]-NH2 [Compound 187]” had a Ki of 0.0227 µM.

“phenylsulfonyl-Gly-cyclo[hCys-His-D-Phe-Arg-Trp-Cys]-NH2 [Compound 161]” gave an inhibitory constant (Ki) of 0.00167 µM.

The substance “Ac-cyclo[hCys-His-(4-Cl-D-Phe)-Arg-Trp-Cys]-NH2 [Compound 140]” yielded a Ki of 0.00187 µM.

Substance “Tyr-Arg-cyclo[hCys-His-D-Phe-Arg-Trp-Cys]-OH [Compound 163]” yielded a Ki of 0.0858 µM.

The substance “N-cyclohexanecarbonyl-cyclo[hCys-His-D-Phe-Arg-Trp-penicillamine]-NH2 [Compound 172]” yielded a Ki of 0.00368 µM.

In turn, “N-hexanoyl-cyclo[hCys-His-D-Phe-Arg-Trp-Cys]-NH2 [Compound 145]” yielded a Ki of 0.00579 µM.

Substance “Ac-Arg-cyclo[Cys-Glu-His-D-Phe-Arg-Trp-Cys]-OH [Compound 49]” displayed a Ki of at least 0.5 µM.

Regarding “Ac-Cya-Arg-cyclo[Cys-Ala-His-D-Phe-Arg-Trp-Cys]-NH2 [Compound 2]”, the affinity, expressed as Ki, was 0.125 µM.

With “cyclo[Cys-His-(4-Cl-D-Phe)-Arg-Trp-hCys]-NH2 [Compound 182]”, the affinity corresponds to a Ki of 0.0708 µM.

“N-(2-naphthalenesulfonyl)-cyclo[hCys-His-D-Phe-Arg-Trp-Cys]-NH2 [Compound 151]” had a Ki of 0.0414 µM.

As to “Arg-cyclo[Cys-His-D-Phe-Arg-Trp-hCys]-NH2 [Compound 186]”, the Ki is 0.182 µM.

In turn, “Ac-Tyr-Arg-cyclo[Cys-His-His-D-Phe-Arg-Trp-Cys]-NH2 [Compound 13]” gave a Ki of 0.0316 µM.

With “3-(4-methylbenzoyl)propionyl-Arg-cyclo[Cys-Glu-His-D-Phe-Arg-Trp-Cys]-NH2 [Compound 67]”, the Ki worked out at 0.0204 µM.

With “Ac-Tyr-Arg-cyclo[Cys-Glu-(5-Me-D-His)-D-Phe-Arg-Trp-Cys]-NH2 [Compound 98]”, affinity was put at a Ki of 0.254 µM.

Consider “Ac-Tyr-Arg-cyclo[Cys-Pro-His-D-Phe-Arg-Trp-Cys]-NH2 [Compound 20]”, for which the Ki came out at 0.0547 µM.

With “Ac-Lys-cyclo[Cys-Glu-His-D-Phe-Arg-Trp-Cys]-NH2 [Compound 58]”, the Ki stood at 0.107 µM.

“N-succinyl-Tyr-Arg-cyclo[Cys-Glu-His-D-Phe-Arg-Trp-Cys]-NH2 [Compound 74]” yielded a Ki of 0.107 µM.

“Ac-Tyr-Arg-cyclo[Cys-Glu-(β-(1,2,4-triazol-3-yl))-D-Ala)-D-Phe-Arg-Trp-Cys]-NH2 [Compound 107]” came in with a Ki of at least 0.5 µM.
